Reference: patent publication US8207144B2, “Sodium salt of disaccharide compound, production method and use of same” (Eisai R & D Management Co., Ltd., priority 2006, dated 2012)

Experiment: Storage stability test (formation of impurities A, B and C by HPLC)
Format: physicochemical
Settings: storage at 25° C., converted to monthly rate from area percent
Description: The salts of Examples 2 to 4 and Comparative Example 1 were placed in a screw-cap glass bottle and stored for 30 days at 25° C. followed by determination of formation rates of impurities A, B and C as described below.
Each salt of Examples 2 to 4 and Comparative Example 1 was dissolved in methanol to prepare a solution having a concentration of 5 mg/mL. When HPLC analysis was carried out under the conditions indicated in Table 1 below on each solution and a blank solution (methanol only), three types of decomposition products were confirmed. Consequently, formation rates (converted to monthly rates) were calculated for each of the three types of decomposition products (impurities A, B and C) using the area percent.

SMILES	Impurity A Formation rate [%/month]	Impurity B Formation rate [%/month]	Impurity C Formation rate [%/month]	Impurity A Formation rate (listed as 2.84 Na Salt) [%/month]	Impurity B Formation rate (listed as 2.84 Na Salt) [%/month]	Impurity A Formation rate (listed as 3.67 Na Salt) [%/month]	Impurity B Formation rate (listed as 3.67 Na Salt) [%/month]	Impurity C Formation rate (listed as 3.67 Na Salt) [%/month]	Impurity A Formation rate (listed as 3.93 Na Salt) [%/month]	Impurity B Formation rate (listed as 3.93 Na Salt) [%/month]	Impurity C Formation rate (listed as 3.93 Na Salt) [%/month]
CCCCCC/C=C\CCCCCCCCCC(=O)NC1C(OCC2OC(OP(=O)([O-])[O-])C(NC(=O)CC(=O)CCCCCCCCCCC)C(OCCCCCCCCCC)C2O)OC(COC)C(OP(=O)([O-])[O-])C1OCCC(CCCCCCC)OC.[Na+].[Na+].[Na+].[Na+] (centres unmarked) [Comparative Example 1, reference compound]	0.729	3.117	0.033								
CCCCCC/C=C\CCCCCCCCCC(=O)N[C@H]1[C@H](OC[C@H]2O[C@H](OP(=O)(O)O)[C@H](NC(=O)CC(=O)CCCCCCCCCCC)[C@@H](OCCCCCCCCCC)[C@@H]2O)O[C@H](COC)[C@@H](OP(=O)(O)O)[C@@H]1OCC[C@@H](CCCCCCC)OC [Example 2]	0.000	0.000	0.282	0.00	0.00						
CCCCCC/C=C\CCCCCCCCCC(=O)N[C@H]1[C@H](OC[C@H]2O[C@H](OP(=O)([O-])[O-])[C@H](NC(=O)CC(=O)CCCCCCCCCCC)[C@@H](OCCCCCCCCCC)[C@@H]2O)O[C@H](COC)[C@@H](OP(=O)([O-])[O-])[C@@H]1OCC[C@@H](CCCCCCC)OC.[Na+].[Na+].[Na+].[Na+] [Example 3]	0.072	0.267	0.072			0.072	0.267	0.072			
CCCCCC/C=C\CCCCCCCCCC(=O)N[C@H]1[C@H](OC[C@H]2O[C@H](OP(=O)([O-])[O-])[C@H](NC(=O)CC(=O)CCCCCCCCCCC)[C@@H](OCCCCCCCCCC)[C@@H]2O)O[C@H](COC)[C@@H](OP(=O)([O-])[O-])[C@@H]1OCC[C@@H](CCCCCCC)OC.[Na+].[Na+].[Na+].[Na+] [Example 4]	0.363	1.455	0.063						0.363	1.455	0.063
